The assay has as its target T1, JAK2 (Homo sapiens, UniProt O60674).
T1 construct: purchased Eurofins DiscoveRx
The assay can be described thus: KdELECT Kd measurement (KINOMEscan platform), JAK2. The class given is binding. As to conditions: Kd to JAK family kinases.

By UniProt entry, the sequences of proteins in these tests, tags left out. Where a name states a change or a piece, a line headed by the entry shows the natural chain unless it says otherwise.
UniProt O60674: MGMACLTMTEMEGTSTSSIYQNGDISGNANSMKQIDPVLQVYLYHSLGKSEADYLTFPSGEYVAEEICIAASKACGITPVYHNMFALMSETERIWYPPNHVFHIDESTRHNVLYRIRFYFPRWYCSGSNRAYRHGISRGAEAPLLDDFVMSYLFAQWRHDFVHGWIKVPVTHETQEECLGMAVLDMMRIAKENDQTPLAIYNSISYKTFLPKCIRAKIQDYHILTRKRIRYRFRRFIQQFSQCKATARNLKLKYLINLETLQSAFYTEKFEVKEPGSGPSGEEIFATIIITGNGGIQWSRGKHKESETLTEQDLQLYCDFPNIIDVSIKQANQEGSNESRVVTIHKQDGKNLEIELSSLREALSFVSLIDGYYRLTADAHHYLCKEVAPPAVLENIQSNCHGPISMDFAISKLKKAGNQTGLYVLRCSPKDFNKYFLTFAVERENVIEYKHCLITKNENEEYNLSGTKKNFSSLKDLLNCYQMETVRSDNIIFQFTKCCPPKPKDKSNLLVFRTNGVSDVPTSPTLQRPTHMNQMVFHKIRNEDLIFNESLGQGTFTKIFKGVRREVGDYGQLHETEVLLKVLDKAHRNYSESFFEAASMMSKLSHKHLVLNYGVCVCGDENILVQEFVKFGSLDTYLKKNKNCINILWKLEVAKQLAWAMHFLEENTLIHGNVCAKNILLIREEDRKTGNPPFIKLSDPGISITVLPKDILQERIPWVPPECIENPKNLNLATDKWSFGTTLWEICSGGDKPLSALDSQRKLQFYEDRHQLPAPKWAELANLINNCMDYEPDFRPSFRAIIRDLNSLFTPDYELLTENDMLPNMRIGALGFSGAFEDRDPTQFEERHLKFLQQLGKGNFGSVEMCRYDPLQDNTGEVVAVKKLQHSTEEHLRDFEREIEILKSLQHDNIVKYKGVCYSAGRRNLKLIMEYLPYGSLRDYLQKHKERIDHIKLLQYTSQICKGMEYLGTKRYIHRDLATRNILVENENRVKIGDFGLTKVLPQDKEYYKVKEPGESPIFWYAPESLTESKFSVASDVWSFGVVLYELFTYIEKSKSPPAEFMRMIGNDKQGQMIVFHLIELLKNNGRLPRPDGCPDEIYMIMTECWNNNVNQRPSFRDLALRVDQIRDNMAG

Usually Kd stands for the equilibrium constant for the complex coming apart. A higher Kd goes with lower affinity. `CCS(=O)(=O)N1CC(CC#N)(n2cc(-c3nc(Nc4ccc(C(=O)NCCCCNc5cccc6c5C(=O)N(C5CCC(=O)NC5=O)C6=O)cc4)nc4[nH]ccc34)cn2)C1` (stereo not shown) [Compound 6] came in with a Kd of 0.11 nM.

The values above are taken from US12624038B2, “Molecules and methods related to treatment of uncontrolled cellular proliferation” (ST. JUDE CHILDREN'S RESEARCH HOSPITAL, priority 2019, dated 2026).
